Reference: ChEMBL document CHEMBL4011601, “Synthesis and molecular docking studies of new furochromone derivatives as p38α MAPK inhibitors targeting human breast cancer MCF-7 cells” (Bioorg Med Chem, 2017)

Amino acid sequences for entries named in this document (tags omitted).
UniProt Q16539, whole entry: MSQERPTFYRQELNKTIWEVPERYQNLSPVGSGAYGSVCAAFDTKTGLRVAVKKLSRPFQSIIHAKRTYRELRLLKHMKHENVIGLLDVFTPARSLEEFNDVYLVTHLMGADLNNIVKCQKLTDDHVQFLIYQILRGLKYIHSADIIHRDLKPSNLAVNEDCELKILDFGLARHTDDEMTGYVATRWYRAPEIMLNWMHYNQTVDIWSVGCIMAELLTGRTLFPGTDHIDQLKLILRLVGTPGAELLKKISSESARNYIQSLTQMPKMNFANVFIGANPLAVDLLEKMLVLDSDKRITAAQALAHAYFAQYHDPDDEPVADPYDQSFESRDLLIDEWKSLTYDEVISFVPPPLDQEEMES

Biological target: Mitogen-activated protein kinase 14 (Homo sapiens) (UniProt Q16539)
Experiment: Potency index, ratio of SB203580 IC50 to compound IC50 for p38alpha MAPK (unknown origin)

COc1c2ccoc2cc2oc(C)c(-c3cc(-c4ccc(F)cc4)c(C#N)c(=N)[nH]3)c(=O)c12
Ratio IC50: 2.6
